Values quoted from earlier work, collected in patent US20180272346A1, “MODULAR ORGAN MICROPHYSIOLOGICAL SYSTEM WITH MICROBIOME” (Massachusetts Institute of Technology, priority 2017, published 2018).

Test system: 7-way MPS platform (gut, liver and other MPSs)
Conditions: dose added to apical side of gut MPS; cited from earlier work

4′-hydroxy-DCF [4-OH-DCF]
absorption and distribution across MPS compartments: detected in all the others MPS compartments
